From patent US20080214606A1, “Methods for the Identification and Use of Compounds Suitable for the Treatment of Drug Resistant Cancer Cells” (The Government of the United States of America as …, priority 2004, published 2008)

The chains behind the UniProt entries cited, without tags or fusion partners.
UniProt P08183, whole entry: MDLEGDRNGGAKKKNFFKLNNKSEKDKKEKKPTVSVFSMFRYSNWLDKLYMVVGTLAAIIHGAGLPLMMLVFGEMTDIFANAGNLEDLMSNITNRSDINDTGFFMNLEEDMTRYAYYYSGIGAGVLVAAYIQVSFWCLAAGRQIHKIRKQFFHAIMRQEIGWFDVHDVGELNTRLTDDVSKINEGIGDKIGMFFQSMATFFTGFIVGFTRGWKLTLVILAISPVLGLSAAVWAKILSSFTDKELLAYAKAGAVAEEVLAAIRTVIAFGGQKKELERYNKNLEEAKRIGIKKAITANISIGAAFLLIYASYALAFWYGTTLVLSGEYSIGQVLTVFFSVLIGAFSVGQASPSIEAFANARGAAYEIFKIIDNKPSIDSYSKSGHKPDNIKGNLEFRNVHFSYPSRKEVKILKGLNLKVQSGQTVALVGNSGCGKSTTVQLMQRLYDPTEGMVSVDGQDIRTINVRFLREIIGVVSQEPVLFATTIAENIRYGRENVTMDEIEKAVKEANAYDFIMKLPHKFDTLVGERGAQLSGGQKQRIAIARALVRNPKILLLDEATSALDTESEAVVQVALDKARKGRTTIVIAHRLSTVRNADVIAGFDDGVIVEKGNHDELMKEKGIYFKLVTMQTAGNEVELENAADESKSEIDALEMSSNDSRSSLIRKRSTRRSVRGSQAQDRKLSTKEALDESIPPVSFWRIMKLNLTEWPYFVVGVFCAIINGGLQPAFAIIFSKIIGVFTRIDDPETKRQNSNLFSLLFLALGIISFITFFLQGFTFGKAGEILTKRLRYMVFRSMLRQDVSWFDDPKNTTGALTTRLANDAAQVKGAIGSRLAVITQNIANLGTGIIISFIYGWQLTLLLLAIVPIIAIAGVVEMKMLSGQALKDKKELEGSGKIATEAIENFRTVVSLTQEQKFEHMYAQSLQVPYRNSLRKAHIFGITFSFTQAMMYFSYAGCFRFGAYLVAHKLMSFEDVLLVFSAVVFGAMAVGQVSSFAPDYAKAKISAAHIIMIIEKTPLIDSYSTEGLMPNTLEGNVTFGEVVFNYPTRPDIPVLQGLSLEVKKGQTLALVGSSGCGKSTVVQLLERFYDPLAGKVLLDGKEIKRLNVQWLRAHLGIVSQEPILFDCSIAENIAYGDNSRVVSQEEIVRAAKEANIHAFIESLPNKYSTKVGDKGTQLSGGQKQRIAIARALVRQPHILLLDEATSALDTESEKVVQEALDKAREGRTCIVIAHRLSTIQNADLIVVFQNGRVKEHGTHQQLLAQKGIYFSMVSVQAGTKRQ

Legend:
ABCB1 = ABCB1 (Homo sapiens, UniProt P08183); experiment: Correlation of ABCB1 expression with drug sensitivity across the NCI-60; conditions: Pearson correlation of ABCB1 expression with sensitivity of the 60 cell lines; 1429 compounds; inverse, p < 0.0001
Method: Expression levels are measured by real-time quantitative RT-PCR using the LightCycler RNA Amplification SYBR Green kit and a LightCycler machine (Roche Biochemicals, Indianapolis, Ind.). Specific oligonucleotide probes are designed for each of the ABC transporters using DNAStar Primer Select (DNASTAR Inc.), and they may be synthesized at Lofstrand Laboratories (Gaithersburg, Md.). When possible, the amplicons are designed to encompass exon-intron boundaries to avoid amplification of genomic DNA. Since the Syber Green assay detects accumulation of double stranded DNA, primers are selected (from a battery consisting of about 200 primers) that amplified a single product of the correct size. […]
During PCR amplification, fluorescence emission is measured and recorded in real time by the LightCycler. Crossing point values are calculated, using the LightCycler software package, by the Fit Points analysis method, with baseline fluorescence set at 1. The SyberGreen assay measures accumulation of double-stranded products, and the appearance of primer dimers limits quantitation at high cycle numbers. […] The raw results are expressed as number of cycles to reach the crossing point. If the desired product is not detected, the corresponding value is adjusted to crossing points indicating no expression. To assess the contribution of experimental artifacts, selected cell lines are assessed in replicate. […]

MDR1 = MDR1 (Homo sapiens, UniProt P08183); conditions: tested in various laboratories; cited from earlier work

For Bouvardin [NSC 259968], the Correlation (ABCB1) is given as −0.7570 and the “Interaction with MDR1” value (MDR1) is given as “interact with MDR1”.
